Laboratory results reported in PubChem BioAssay AID602346 (Broad Institute, 2012).
This is a selection; strong and weak results do not stand in their true shares. Calls of active or inactive are those of the source. Cut-off read from the data, not from the text of the source: active = inhibition above about 50% (passing the limit was not always enough); inconclusive = no clear call, values can overlap the other calls; inactive = below about 31%.

Experiment: blockers of Vif multimerization in cells – imaging, HEK293T, single point, primary screen (AID 602346)
Details: Vif self-association by quenched fluorescence, 24 h, at 7.49 µM, active compounds read high

Structure (SMILES) | inhibition
CP(=O)(Nc1ccc(SC(F)(F)F)cc1)Oc1ccccc1 (configuration not stated) | inactive: -17.1%
NC(=O)Nc1ccc([As](=O)(O)O)cc1 | inactive: -1.56%
